Key:
[1] = biological target: T1, Peroxisome proliferator-activated receptor delta (Mus musculus, UniProt P35396)
T1 sequence (P35396 whole entry): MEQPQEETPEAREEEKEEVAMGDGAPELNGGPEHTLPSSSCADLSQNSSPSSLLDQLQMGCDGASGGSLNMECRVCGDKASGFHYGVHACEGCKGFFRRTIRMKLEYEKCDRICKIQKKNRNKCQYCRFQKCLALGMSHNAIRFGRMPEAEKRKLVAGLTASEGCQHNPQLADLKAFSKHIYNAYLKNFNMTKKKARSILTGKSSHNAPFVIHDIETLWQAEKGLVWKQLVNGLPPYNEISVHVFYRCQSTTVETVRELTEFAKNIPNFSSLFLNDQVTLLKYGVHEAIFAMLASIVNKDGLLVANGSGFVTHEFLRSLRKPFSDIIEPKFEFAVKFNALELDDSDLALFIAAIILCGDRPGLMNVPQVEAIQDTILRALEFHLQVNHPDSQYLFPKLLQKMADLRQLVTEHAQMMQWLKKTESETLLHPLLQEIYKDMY

Chains of the proteins cited; added tags and fusions are not shown.
UniProt P37238, whole entry: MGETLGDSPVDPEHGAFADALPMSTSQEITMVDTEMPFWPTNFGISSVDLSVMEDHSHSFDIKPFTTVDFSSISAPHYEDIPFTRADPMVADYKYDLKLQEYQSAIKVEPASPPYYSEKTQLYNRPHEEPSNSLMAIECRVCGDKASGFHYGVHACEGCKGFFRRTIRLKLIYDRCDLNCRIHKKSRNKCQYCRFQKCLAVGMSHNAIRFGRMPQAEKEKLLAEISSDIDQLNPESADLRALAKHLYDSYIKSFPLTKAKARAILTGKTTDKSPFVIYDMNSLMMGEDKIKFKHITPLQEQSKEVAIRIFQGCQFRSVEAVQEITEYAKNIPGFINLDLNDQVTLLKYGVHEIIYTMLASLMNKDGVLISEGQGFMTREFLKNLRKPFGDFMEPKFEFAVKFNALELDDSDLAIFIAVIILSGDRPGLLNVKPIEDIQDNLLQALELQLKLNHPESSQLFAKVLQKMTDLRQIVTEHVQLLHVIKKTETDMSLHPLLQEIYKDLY

[2] = biological target: Peroxisome proliferator-activated receptor gamma (Mus musculus, UniProt P37238)

Molecule CC(C)(Sc1ccc(CCN(CCCCC2CCCCC2)C(=O)NC2CCCCC2)cc1)C(=O)O [GW7647] has an EC50 [1] of 2900 nM and an EC50 [2] of 1300 nM.

From ChEMBL document CHEMBL1134264, “Identification of a subtype selective human PPARalpha agonist through parallel-array synthesis” (Bioorg Med Chem Lett, 2001)
